## scFv variants of Ab-14 (heavy chain) against a SARS-CoV-2 spike peptide

Binding partner: SARS-CoV-2 spike HR2 peptide, sequence PDVDLGDISGINAS.

Parent: Ab-14, a human scFv built as VH, three GGGGS repeats, VL. Only the CDRs of the heavy chain vary.
VH: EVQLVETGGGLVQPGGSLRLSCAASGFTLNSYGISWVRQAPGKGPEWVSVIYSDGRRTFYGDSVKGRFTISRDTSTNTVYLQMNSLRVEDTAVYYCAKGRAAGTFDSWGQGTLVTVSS
VL: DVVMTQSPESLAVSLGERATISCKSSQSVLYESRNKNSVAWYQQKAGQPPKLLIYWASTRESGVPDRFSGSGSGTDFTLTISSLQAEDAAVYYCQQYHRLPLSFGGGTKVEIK

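AAYL49 was designed without a model: most single CDR substitutions and a random sample of double and triple ones. The scFvs were displayed on barcoded MATa yeast, the peptide on MATalpha yeast. Mating (16 h, 30 °C) was followed by selection of diploids and sequencing of their barcodes. Scores were corrected for input abundance and mapped to Kd with protein pairs of known affinity run in the same pool. The assay was run in three technical replicates.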

Each variant is given by its three heavy chain CDRs, as the data file delimits them; those of the parent are GFTLNSYGIS, VIYSDGRRTFYGDSVK, GRAAGTFDS. Scale: log10 of Kd in nM, estimated from mating counts; low values are strong binders. A mean of the replicates is given; it leaves out those without a signal. "nd" means that the variant was in the library but no mating with the target was seen in that replicate; the authors take this as a sign of poor binding, and no number exists. Background: pairings of library AAYL49 with three empty control strains gave a value in 15% of cases (median 4.06, 5th percentile 2.83). Values in that range, when seen in few replicates, are hard to tell from nonspecific mating. Also given: how often the same scFv was detected with the empty control strains, with their mean in brackets.

{"CDR-H1": "GFTSNSYGIS", "CDR-H2": "SIYCDGRRTFYGDSVK", "CDR-H3": "GRAAGTFDS", "log10 Kd, replicates": "nd nd nd", "mean log10 Kd (nM)": "nd", "empty controls": "0 of 9"}
{"CDR-H1": "GFTLNSYGIS", "CDR-H2": "VIYSDGRRTMYGDSVW", "CDR-H3": "MRAAGTFDS", "log10 Kd, replicates": "nd nd nd", "mean log10 Kd (nM)": "nd", "empty controls": "2 of 9 (4.46)"}
{"CDR-H1": "GFTLNSLGIS", "CDR-H2": "VIYSDGRRTFYGDSVK", "CDR-H3": "GRAAGTKCS", "log10 Kd, replicates": "nd 3.21 5.91", "mean log10 Kd (nM)": "4.56", "empty controls": "2 of 9 (4.28)"}
{"CDR-H1": "GFTLNSYGIS", "CDR-H2": "VIYSDGRRTNYGDSVK", "CDR-H3": "GRAAGTFDS", "log10 Kd, replicates": "1.52 1.72 1.68", "mean log10 Kd (nM)": "1.64", "empty controls": "4 of 9 (4.31)"}
{"CDR-H1": "RFTLNSYGIS", "CDR-H2": "VIDSDGRRTFYGDSVK", "CDR-H3": "GREAGTFDS", "log10 Kd, replicates": "nd 4.69 nd", "mean log10 Kd (nM)": "4.69", "empty controls": "5 of 9 (4.33)"}
{"CDR-H1": "GFTLNSYGIL", "CDR-H2": "VIWSDGRRTFYGDSVK", "CDR-H3": "GEAAGTFDS", "log10 Kd, replicates": "nd nd nd", "mean log10 Kd (nM)": "nd", "empty controls": "2 of 9 (4.29)"}
{"CDR-H1": "GFTLNYYGIS", "CDR-H2": "VIYSDGYRPFYGDSVK", "CDR-H3": "GRAAGTFDS", "log10 Kd, replicates": "nd nd nd", "mean log10 Kd (nM)": "nd", "empty controls": "0 of 9"}
{"CDR-H1": "GFTLNSYGIS", "CDR-H2": "VIYSDERRTFYGDSVK", "CDR-H3": "GRAAGTHDS", "log10 Kd, replicates": "6.05 nd nd", "mean log10 Kd (nM)": "6.05", "empty controls": "3 of 9 (4.81)"}
{"CDR-H1": "NFTLPCYGIS", "CDR-H2": "VIYSDGRRTFYGDSVK", "CDR-H3": "GRAAGTFDS", "log10 Kd, replicates": "3.91 3.60 4.24", "mean log10 Kd (nM)": "3.91", "empty controls": "2 of 9 (4.87)"}
{"CDR-H1": "GFTSNSYGRS", "CDR-H2": "VIYSDGRRTFYGDSVK", "CDR-H3": "GRAAGTFLS", "log10 Kd, replicates": "nd 3.88 nd", "mean log10 Kd (nM)": "3.88", "empty controls": "0 of 9"}
{"CDR-H1": "GFTLNSYGIS", "CDR-H2": "VIYSDGRRTFYGFSVK", "CDR-H3": "GRAAGTFDS", "log10 Kd, replicates": "2.93 2.75 3.21", "mean log10 Kd (nM)": "2.96", "empty controls": "1 of 9 (3.47)"}
{"CDR-H1": "GFTLNSYGIS", "CDR-H2": "EIYSDGRRTFYGDSVK", "CDR-H3": "GIQAGTFDS", "log10 Kd, replicates": "nd nd nd", "mean log10 Kd (nM)": "nd", "empty controls": "3 of 9 (3.37)"}
{"CDR-H1": "GFRLNSYGIS", "CDR-H2": "VIASDGRRTFYGLSVK", "CDR-H3": "GRAAGTFDS", "log10 Kd, replicates": "nd nd nd", "mean log10 Kd (nM)": "nd", "empty controls": "0 of 9"}
{"CDR-H1": "GFTLNSYGIS", "CDR-H2": "VIYSDGRRTFYGASVK", "CDR-H3": "GFANGTFDS", "log10 Kd, replicates": "nd 3.86 3.08", "mean log10 Kd (nM)": "3.47", "empty controls": "0 of 9"}
{"CDR-H1": "GFTLNSYGIS", "CDR-H2": "VIYSWGRRTFYGDSVK", "CDR-H3": "GKAAGTFYS", "log10 Kd, replicates": "nd nd nd", "mean log10 Kd (nM)": "nd", "empty controls": "0 of 9"}
{"CDR-H1": "GFTLNSYGIS", "CDR-H2": "VIYSDGRRTFYGDSAC", "CDR-H3": "GYAAGTFDS", "log10 Kd, replicates": "2.08 1.96 2.31", "mean log10 Kd (nM)": "2.12", "empty controls": "2 of 9 (3.95)"}
{"CDR-H1": "GFTLNSYTIS", "CDR-H2": "VIYSDGRRTFYGDSVK", "CDR-H3": "GRIAGTFDS", "log10 Kd, replicates": "nd 2.82 nd", "mean log10 Kd (nM)": "2.82", "empty controls": "3 of 9 (3.83)"}
{"CDR-H1": "GFTLNSYGIS", "CDR-H2": "VIYSDYRRTFYGDSVN", "CDR-H3": "GRAAGTTDS", "log10 Kd, replicates": "nd nd nd", "mean log10 Kd (nM)": "nd", "empty controls": "0 of 9"}
{"CDR-H1": "GFTLNSYGWS", "CDR-H2": "VIYSDGRRTFYGDMVK", "CDR-H3": "GRAAGAFDS", "log10 Kd, replicates": "nd 3.19 3.56", "mean log10 Kd (nM)": "3.37", "empty controls": "1 of 9 (3.71)"}
{"CDR-H1": "GFTINSYGIS", "CDR-H2": "VIYSDGRRTFYEDSVK", "CDR-H3": "GRASGTFDS", "log10 Kd, replicates": "0.24 0.54 0.42", "mean log10 Kd (nM)": "0.40", "empty controls": "0 of 9"}
{"CDR-H1": "GFTLNSYGIG", "CDR-H2": "VITSDGRRTFYGDSVK", "CDR-H3": "GRAAGTFDE", "log10 Kd, replicates": "nd nd nd", "mean log10 Kd (nM)": "nd", "empty controls": "1 of 9 (3.98)"}
{"CDR-H1": "GRTLNIYGIS", "CDR-H2": "VIYSDGRRTFYVDSVK", "CDR-H3": "GRAAGTFDS", "log10 Kd, replicates": "2.71 3.07 2.43", "mean log10 Kd (nM)": "2.74", "empty controls": "2 of 9 (3.82)"}
{"CDR-H1": "GFTLNSYGIS", "CDR-H2": "VIYSDGRRTFYGDSVK", "CDR-H3": "ERAAGEDDS", "log10 Kd, replicates": "nd 4.27 nd", "mean log10 Kd (nM)": "4.27", "empty controls": "3 of 9 (4.56)"}
{"CDR-H1": "GFTLNSYGIS", "CDR-H2": "VIYSQGRQTFYGDSDK", "CDR-H3": "GRAAGTFDS", "log10 Kd, replicates": "nd 4.58 nd", "mean log10 Kd (nM)": "4.58", "empty controls": "0 of 9"}
{"CDR-H1": "GFTLNSYIIS", "CDR-H2": "VLYSDGRRTKYGDSVK", "CDR-H3": "GRAAGTFDS", "log10 Kd, replicates": "nd 3.69 nd", "mean log10 Kd (nM)": "3.69", "empty controls": "3 of 9 (4.69)"}
{"CDR-H1": "RFTLNSYGIS", "CDR-H2": "VIYSDYRRTRYGDSVK", "CDR-H3": "GRAAGTFDS", "log10 Kd, replicates": "5.45 nd 5.24", "mean log10 Kd (nM)": "5.35", "empty controls": "5 of 9 (5.74)"}
{"CDR-H1": "GFTLNSYGIS", "CDR-H2": "VIYSDHRRTHYGDSMK", "CDR-H3": "GRAAGTFDS", "log10 Kd, replicates": "nd 4.21 nd", "mean log10 Kd (nM)": "4.21", "empty controls": "0 of 9"}
{"CDR-H1": "GFTLVSYGIS", "CDR-H2": "VIYTDGRRTFYGDSVK", "CDR-H3": "GRAAGTADS", "log10 Kd, replicates": "nd nd 3.87", "mean log10 Kd (nM)": "3.87", "empty controls": "2 of 9 (4.50)"}
{"CDR-H1": "GFTLNSYWIS", "CDR-H2": "VIYSDGRKTMYGDSVK", "CDR-H3": "GRAAGTFDS", "log10 Kd, replicates": "nd nd nd", "mean log10 Kd (nM)": "nd", "empty controls": "3 of 9 (3.63)"}
{"CDR-H1": "GFTLNSYGIS", "CDR-H2": "VIYSDGRRTFYTDSVK", "CDR-H3": "GRAAGTVCS", "log10 Kd, replicates": "4.63 3.79 nd", "mean log10 Kd (nM)": "4.21", "empty controls": "3 of 9 (4.06)"}

The first 3 variants above that were never detected:

CDR-H1,CDR-H2,CDR-H3,"log10 Kd, replicates",mean log10 Kd (nM),empty controls
GFTSNSYGIS,SIYCDGRRTFYGDSVK,GRAAGTFDS,nd nd nd,nd,0 of 9
GFTLNSYGIS,VIYSDGRRTMYGDSVW,MRAAGTFDS,nd nd nd,nd,2 of 9 (4.46)
GFTLNSYGIL,VIWSDGRRTFYGDSVK,GEAAGTFDS,nd nd nd,nd,2 of 9 (4.29)

Values reported by Engelhart et al. 2022, doi:10.1038/s41597-022-01779-4 (FLAb copy).